Where two headings read alike, the source gives them in different places.
Tested on: DNFB-induced dermatitis in C3H/HeN mice
Conditions: 10 mg/kg orally once a day, 24 hours after DNFB application at fifth application, female C3H/HeN mice

CC[C@@H](NC(=O)N1CC(=O)NC[C@@H](Cc2cc(Cl)ccc2OC)C1=O)c1ccc(C(=O)O)c(N)c1 [2-amino-4-[(1R)-1-({[(6R)-6-(5-chloro-2-methoxybenzyl)-3,7-dioxo-1,4-diazepan-1-yl]carbonyl}amino)propyl]benzoic Acid]
inhibition rate of the skin reaction: 20.0%

CC[C@@H](NC(=O)N1CC(=O)NC[C@H](Cc2cc(Cl)ccc2OC)C1=O)c1ccc(C(=O)O)c(N)c1 [Compound 179B, 2-amino-4-[(1R)-1-({[(6S)-6-(5-chloro-2-methoxybenzyl)-3,7-dioxo-1,4-diazepan-1-yl]carbonyl}amino)propyl]benzoic Acid Monoacetic Acid Solvate]
inhibition rate of the skin reaction (listed as compound 179B): 32.8%

CC[C@@H](NC(=O)N1CC(=O)NC[C@H](Cc2cc(Cl)ccc2OC)C1=O)c1ccc(C(=O)O)c(N)c1 [Compound 150, 2-amino-4-[(1R)-1-({[(6S)-6-(5-chloro-2-methoxybenzyl)-3,7-dioxo-1,4-diazepan-1-yl]carbonyl}amino)propyl]benzoic Acid]
inhibition rate of the skin reaction (listed as compound 150): 29.9%

Reference: patent publication US8507714B2, “7-membered ring compound and method of production and pharmaceutical application thereof” (Daiichi Sankyo Company, Limited, priority 2004, dated 2013)
